# Source: ChEMBL document CHEMBL4418496, “Inhibitors of crl4 ubiquitin ligase and uses thereof” (2014)
# Amino acid sequences for entries named in this document (tags omitted).
# UniProt Q3TCH7, whole entry, looked up: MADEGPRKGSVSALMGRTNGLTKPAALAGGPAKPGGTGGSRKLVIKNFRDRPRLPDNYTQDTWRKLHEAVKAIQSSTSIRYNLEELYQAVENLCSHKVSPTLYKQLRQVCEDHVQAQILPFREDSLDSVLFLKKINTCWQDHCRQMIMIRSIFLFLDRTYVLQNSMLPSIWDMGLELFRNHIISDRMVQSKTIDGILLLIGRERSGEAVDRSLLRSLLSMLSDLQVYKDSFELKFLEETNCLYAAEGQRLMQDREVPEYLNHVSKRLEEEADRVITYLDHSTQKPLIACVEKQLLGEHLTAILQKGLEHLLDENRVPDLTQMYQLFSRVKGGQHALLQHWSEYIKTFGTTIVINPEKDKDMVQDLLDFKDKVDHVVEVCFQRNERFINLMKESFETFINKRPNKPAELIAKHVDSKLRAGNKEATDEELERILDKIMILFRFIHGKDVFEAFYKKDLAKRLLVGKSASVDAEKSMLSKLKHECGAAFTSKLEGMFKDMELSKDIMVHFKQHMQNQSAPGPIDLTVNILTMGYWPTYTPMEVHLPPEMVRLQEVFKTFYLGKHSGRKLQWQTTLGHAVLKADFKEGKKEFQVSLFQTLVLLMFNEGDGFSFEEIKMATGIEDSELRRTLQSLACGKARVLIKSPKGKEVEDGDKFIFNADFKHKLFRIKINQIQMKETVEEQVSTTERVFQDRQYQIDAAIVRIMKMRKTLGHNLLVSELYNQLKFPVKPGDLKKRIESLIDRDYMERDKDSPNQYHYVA
# Target: Cullin-4A (Mus musculus) (UniProt Q3TCH7)
# Assay: Inhibition of CUL4A in mouse MEF cells stably expressing FL FLAG-tagged DDB2 assessed as reduction in F-DDB2 degradation incubated for 2 hrs before irradiated with 10 J/m2 UV irradiation
# Type: cell-based
compound,measurement,value
COc1cc(Br)c([N+](=O)[O-])nc1[N+](=O)[O-],inhibition (active/inactive call),Active

# The source made the active and inactive calls. The rule behind the calls is not given here.
